This note sets out measurements from patent US7790781B2 (priority 2005, dated 2010).

A short description of the data set: pKa of acidic compound in water. An excerpt: If polyfunctional acids are used, it is sufficient for at least one of the pKa values, preferably the pKa1 of the polyfunctional acid used, to lie within the aforementioned ranges.

`O=C(O)CCC(=O)O` [succinic acid]: the pKa (in general, the negative logarithm of the acid dissociation constant) was determined as 4.19.
